Measurements as given in ChEMBL document CHEMBL4321874, “Discovery of a Novel, Highly Potent, and Selective Thieno[3,2-d]pyrimidinone-Based Cdc7 Inhibitor with a Quinuclidine Moiety (TAK-931) as an Orally Active Investigational Antitumor Agent” (J Med Chem, 2020).

By UniProt entry, the sequences of proteins in these tests, tags left out. Where a name states a change or a piece, a line headed by the entry shows the natural chain unless it says otherwise.
UniProt O00311: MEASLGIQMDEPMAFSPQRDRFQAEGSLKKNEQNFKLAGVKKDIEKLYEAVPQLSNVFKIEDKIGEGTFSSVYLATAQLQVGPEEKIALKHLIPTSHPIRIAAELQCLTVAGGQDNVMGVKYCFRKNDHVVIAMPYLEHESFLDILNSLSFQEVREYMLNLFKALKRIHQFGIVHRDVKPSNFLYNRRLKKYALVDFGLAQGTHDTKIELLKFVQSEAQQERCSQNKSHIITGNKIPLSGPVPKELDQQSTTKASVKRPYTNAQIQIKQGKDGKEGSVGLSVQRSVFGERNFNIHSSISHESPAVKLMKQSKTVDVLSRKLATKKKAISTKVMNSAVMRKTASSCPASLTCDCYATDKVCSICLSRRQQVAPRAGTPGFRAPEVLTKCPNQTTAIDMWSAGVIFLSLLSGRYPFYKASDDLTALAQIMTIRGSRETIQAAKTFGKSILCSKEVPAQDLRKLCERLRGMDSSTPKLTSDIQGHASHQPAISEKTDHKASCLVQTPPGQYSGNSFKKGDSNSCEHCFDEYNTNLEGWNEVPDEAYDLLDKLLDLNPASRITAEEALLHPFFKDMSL

Legend:
Homo sapiens [1] = species on record: Homo sapiens; test: Selectivity index, ratio of IC50 for N-terminal GST-tagged full-length human CDK2 (1 to 298 residues)/Cyclin E (1 to 410 residues) expressed in baculovirus expression system to IC50 for N-terminal GST-fused full-length human CDC7 (1 to 574 end residues)/DBF4 (1 to 674 residues) expressed in baculovirus expression system
Homo sapiens [2] = species on record: Homo sapiens; test: Selectivity index, ratio of IC50 N-terminal GST-tagged human ROCK1 catalytic domain (1 to 477 residues) expressed in baculovirus expression system to IC50 for N-terminal GST-fused full-length human CDC7 (1 to 574 end residues)/DBF4 (1 to 674 residues) expressed in baculovirus expression system
[3] = target: T1, Cell division cycle 7-related protein kinase (Homo sapiens, UniProt O00311)
[4] = target: T1, Cell division cycle 7-related protein kinase; remark: listed apart in the source

Structure (SMILES) | Ratio IC50 (Homo sapiens [1]) | Ratio IC50 (Homo sapiens [2]) | Kdiss [3] | Kdiss [4]
Cc1n[nH]cc1-c1cc2nc([C@@H]3CCCCN3)[nH]c(=O)c2s1 | 15000 | 950 | 6.3 ×10⁻⁴ /s | –
Cc1n[nH]cc1-c1cc2nc(CN3CCCC3)[nH]c(=O)c2s1 | 14000 | 200 | 4.94 ×10⁻⁴ /s | –
Cc1n[nH]cc1-c1cc2nc([C@@H]3CC4CCN3CC4)[nH]c(=O)c2s1 [SIMUROSERTIB] | 24000 | 1700 | – | 6.3 ×10⁻⁴ /s
Cc1n[nH]cc1-c1cc2nc([C@H]3CC4CCN3CC4)[nH]c(=O)c2s1 | 10000 | 460 | – | –
Cc1n[nH]cc1-c1cc2nc(C34CC(CN3)C4)[nH]c(=O)c2s1 | 17000 | 1400 | – | –

Continued, in another order:

Ratio IC50 (Homo sapiens [1]) | Ratio IC50 (Homo sapiens [2]) | Kdiss [3] | Structure (SMILES) | Kdiss [4]
22000 | 1200 | – | O=c1[nH]c([C@@H]2CCCCN2)nc2cc(-c3c[nH]nc3C(F)(F)F)sc12 | –
5300 | 410 | – | Cc1n[nH]cc1-c1cc2nc([C@H]3CCCCN3)[nH]c(=O)c2s1 | –
